According to PubChem BioAssay AID2549 (National Center for Advancing Translational Sciences (NCATS), 2010):
Only a part is listed here, and it is no random draw. Some structures show a salt or complex split into parts, the way the source records it. The source made the active and inactive calls. Calls come from the whole dose curve; as a rule, active = well fitted inhibition curve with a large enough effect; inconclusive = small, poorly fitted or top-dose-only effect; inactive = flat fitted curve, though single readings scatter.

Chains of the proteins cited; added tags and fusions are not shown.
UniProt P46063, whole entry: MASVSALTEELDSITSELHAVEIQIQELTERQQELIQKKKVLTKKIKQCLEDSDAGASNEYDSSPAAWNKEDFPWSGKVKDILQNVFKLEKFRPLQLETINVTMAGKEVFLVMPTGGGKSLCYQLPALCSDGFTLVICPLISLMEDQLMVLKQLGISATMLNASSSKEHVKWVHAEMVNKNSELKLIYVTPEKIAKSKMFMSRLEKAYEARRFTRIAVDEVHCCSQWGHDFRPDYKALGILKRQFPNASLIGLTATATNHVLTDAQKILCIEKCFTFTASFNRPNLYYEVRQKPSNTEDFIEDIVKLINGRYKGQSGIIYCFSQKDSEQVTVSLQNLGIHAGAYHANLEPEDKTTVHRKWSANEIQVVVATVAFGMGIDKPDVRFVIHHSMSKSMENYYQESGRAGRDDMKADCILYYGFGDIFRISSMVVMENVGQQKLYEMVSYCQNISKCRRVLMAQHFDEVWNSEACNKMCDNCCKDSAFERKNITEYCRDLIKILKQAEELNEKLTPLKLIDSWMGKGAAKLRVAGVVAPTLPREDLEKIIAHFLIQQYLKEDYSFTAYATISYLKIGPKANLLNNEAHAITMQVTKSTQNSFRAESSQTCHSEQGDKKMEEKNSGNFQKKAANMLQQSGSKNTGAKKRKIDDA

target: ATP-dependent DNA helicase Q1 (Homo sapiens) (UniProt P46063); experiment: qHTS Assay for Inhibitors of RecQ-Like Dna Helicase 1 (RECQ1); conditions: RECQ1 DNA unwinding, red fluorescence kinetic read; activity, negative = inhibition: at 57.3 µM (top of the series); note: nearly all actives have a fitted effect of over 30% in size
From the text: Survival of cells and the faithful propagation of the genome depend on elaborate mechanisms of detecting and repairing DNA damage. Treatment of advanced cancer relies on radiation therapy or chemotherapy, which kill cancer cells by causing extensive DNA damage. It is often found, that cancer cells develop resistance to therapy through enhanced activity of DNA repair functions; this has led to an increased interest in developing drugs that interfere with DNA repair, which could sensitize cancer cells to conventional therapy.
This validation qHTS assay pertains to human RECQ1, which is important in resolving abnormal DNA structures formed during replication or homologous recombination. Shutting down the expression of RECQ1 leads to chromosomal instability and higher radiation sensitivity in cultured cells.
The validation assay was a fluorescence quenching based kinetic qHTS for RECQ1 Helicase DNA unwinding. The activity was measured as ATP-dependent separation of a 20-bp DNA duplex extended by 30-nt single-stranded tails (forked duplex). The forked DNA substrate was tagged with rhodamine fluorophore (carboxytetramethyl rhodamine, TAMRA) and BHQ-2 (Black Hole Quencher 2) dark quencher. Strand separation results in an increase in the fluorescence of TAMRA (excitation 525 nm, emission 598 nm). This substrate construct operates in a red-shifted region where very few compound library members have been noted to fluoresce (PubChem AIDs 593 and 594). An additional feature of the assay is the inclusion of 2.5 ug/ml poly (dIdC), to reduce interference by compounds such as DNA intercalators, a major source of false inhibitors.
Opher Gileadi, Structural Genomics Consortium, University of Oxford
Screening Center PI: Austin, C.P.
Screening Center: NIH Chemical Genomics Center [NCGC]
Three uL of reaction buffer (25 mM Tris-HCl (pH 8.0), 5 mM NaCl, 2 mM MgCl2, 1mM DTT, 0.01% Tween- 20, and 2.5 ug/ml poly(dI-dC), including enzyme (50 nM RECQ1T1), were dispensed into a 1536-well Greiner black assay plate via solenoid-valve based nanoliter dispensers. Compounds (23 nl each in columns 5-48) and control (23 nl each in column 2 as dose-response) were transferred via a Kalypsys pintool equipped with a 1536-pin array. The plates were incubated for 15 min at room temperature, and then 1 ul of substrates (200 nM DNA and 2 mM ATP, final concentrations) was added to start the reaction. The plate was transferred into a ViewLux high-throughput CCD imager where the reaction progress was measured in a discontinuous kinetic mode (two reads spaced 2 hours apart, with intermediate room temperature incubation of the covered assay plate) by using standard red-fluorescence optics (excitation filter 525 nm, emission filter 598 nm). Enzyme-free and vehicle (DMSO) controls were included for signal normalization.

SMILES | activity, negative = inhibition
Fc1ccccc1NC1CCN(Cc2ccccc2)CC1 | inactive: -10.8%
CCN1CCC(Nc2cccc(F)c2)CC1 | inactive: -16%
CN(C)c1ccc(C(=O)NCC2(N3CCCCC3)CCCCC2)cc1 | inactive: -1.94%
CCOc1ncccc1C(=O)NCC1(N2CCOCC2)CCCCC1 | inactive
CC(C)(C)OC(=O)N1CCC(Nc2ccccc2)CC1 | inactive
CCC(CO)(C(=O)OC1CN2CCC1CC2)c1ccccc1 (stereo unspecified) | inactive: -2.76%
COc1cc(OC)cc(C(=O)NCC2(N3CCOCC3)CCCCC2)c1 | inactive
CCCOc1ccc(C)cc1CN(CCCl)CCCl | inactive: 5.87%
COc1ccc(C(=O)NCC2(N3CCOCC3)CCCCC2)cc1OC | inactive
N/C(=N\O)c1c(N)no[n+]1[O-] | inactive: -0.379%
O=C(O)c1cccc(Nc2c([N+](=O)[O-])cc([N+](=O)[O-])cc2[N+](=O)[O-])c1 | inactive
O=C(OC1CN2CCC1CC2)C1c2ccccc2C=Cc2ccccc21 (stereo unspecified) | inactive: -2.51%
N#Cc1ccc(C(=O)NCC2(N3CCCCC3)CCCCC2)cc1 | inactive: -12.2%
CCOC(=O)C(CC)C1=NC(C)(C)Cc2ccccc21.O=[N+]([O-])c1cc([N+](=O)[O-])c(O)c([N+](=O)[O-])c1 (stereo unspecified) | inactive
c1ccc(CN2CCC(Nc3ccccc3)CC2)cc1 | inactive
ClCCOP(OCCCl)OCCCl | inactive: -0.523%
O=C(NCC1(N2CCCCC2)CCCCC1)c1cccc([N+](=O)[O-])c1 | inactive
N#CC1(Nc2ccccc2)CCN(CCc2ccccc2)CC1 | inactive: -1.59%

SMILES | activity, negative = inhibition
O=[N+]([O-])c1cc([N+](=O)[O-])c(NCC2CCS(=O)(=O)C2)c([N+](=O)[O-])c1 (stereo unspecified) | inactive: -8.23%
CN1CCN(CCOC(=O)C(O)(c2ccccc2)c2ccccc2)CC1 | inactive: -0.114%
COc1ccc(NC2CCN(C(=O)OC(C)(C)C)CC2)cc1 | inactive: -4.95%
O=C(NCC1(N2CCOCC2)CCCCC1)c1cc(=O)[nH]c2ccccc12 | inactive
CN(C)c1cccc(C(=O)NCC2(N3CCCCC3)CCCCC2)c1 | inactive: -0.464%
COc1ccc(CN(CCCl)CCCl)cc1Cl | inactive: -9.89%
CC(C)c1ccc(NC2CCN(C(=O)OC(C)(C)C)CC2)cc1 | inactive: -20%
CCOP(=O)(Cl)Cl | inactive: -2.87%
COc1ccc2c(c1O)-c1c(O)c(OC)cc3c1[C@H](C2)[N+](C)(C)CC3.O=[N+]([O-])c1cc([N+](=O)[O-])c([O-])c([N+](=O)[O-])c1[O-] | inactive
O=C(OC1CN2CCC1CC2)c1ccc([N+](=O)[O-])cc1 (stereo unspecified) | inactive: 8.82%
COc1ccc(C(=O)NCC2(N3CCCCC3)CCCCC2)c(OC)c1OC | inactive
O=C(NCC1(N2CCOCC2)CCCCC1)c1cc2ccccc2o1 | inactive
CCOC(=O)N1CCC(Nc2ccc(OC)cc2)CC1 | inactive
O=C(OC1CN2CCC1CC2)C1c2ccccc2Oc2ccccc21 (stereo unspecified) | inactive: -4.02%
N#CC1(Nc2ccccc2)CCN(Cc2ccccc2)CC1 | inactive: -5.12%
CCOc1ccc(C)cc1CN(CCCl)CCCl | inactive: 9.15%
COc1ccc(NC2CCN(CCc3ccccc3)CC2)c(OC)c1 | inactive: -3.4%
Cc1ccc(OCC(C)C)c(CN(CCCl)CCCl)c1 | inactive: -1.23%
